Patent US20090053168A1, “TREATMENTS OF B-CELL PROLIFERATIVE DISORDERS” (priority 2007, published 2009)

Test system: MM.1R cells
Test: Anti-proliferation assay (ATPLite, 72 h), MM.1R
Format: cell-based
Conditions: in combination with HE-NECA

## O=C1C2CC=CCC2C(=O)N1SC(Cl)(Cl)C(Cl)Cl (stereo not shown)
  Synergy Score: 1.37
